The results in this text go back to US20130274254A1, “INHIBITORS OF CYTOCHROME P450 (CYP3A4)” (Gilead Sciences, Inc., priority 2010, published 2013).

Amino acid sequences for entries named in this document (tags omitted). Residues count along the entry.
UniProt P08684, 2-503 limits assumed: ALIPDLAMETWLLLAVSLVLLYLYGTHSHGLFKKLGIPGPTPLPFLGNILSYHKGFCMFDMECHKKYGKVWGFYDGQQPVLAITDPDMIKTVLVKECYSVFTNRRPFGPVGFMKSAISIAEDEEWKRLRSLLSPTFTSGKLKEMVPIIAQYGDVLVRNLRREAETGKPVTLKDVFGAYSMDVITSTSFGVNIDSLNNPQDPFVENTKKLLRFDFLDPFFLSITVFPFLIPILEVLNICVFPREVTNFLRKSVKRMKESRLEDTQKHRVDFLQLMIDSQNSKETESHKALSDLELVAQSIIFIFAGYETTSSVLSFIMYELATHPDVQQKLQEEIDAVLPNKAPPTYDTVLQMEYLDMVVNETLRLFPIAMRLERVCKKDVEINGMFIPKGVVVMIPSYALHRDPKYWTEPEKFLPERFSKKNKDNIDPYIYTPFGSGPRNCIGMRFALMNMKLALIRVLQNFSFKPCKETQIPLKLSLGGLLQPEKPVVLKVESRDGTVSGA

In data set [1] the target is T1, CYP3A4 (Homo sapiens, UniProt P08684). In words: CYP3A inhibition assay, testosterone 6β-hydroxylase activity in pooled human hepatic microsomal fraction. The note with it: read-out: CYP3A4 IC50 (μM) (testosterone), human hepatic microsomes, 0.5 mg/mL microsomal protein, 50 μM substrate.
In data set [2] the target is T1, CYP3A4. In words: CYP3A inhibition assay, midazolam 1'-hydroxylase activity in pooled human hepatic microsomal fraction. The data set is classed as biochemical. As to conditions: read-out: CYP3A4 IC50 (μM) (midazolam), human hepatic microsomes, 0.25 mg/mL microsomal protein.

For `O=C(N[C@H](CC[C@H](Cc1ccccc1)NC(=O)[C@H](CCN1CCOCC1)NC(=O)N1CCCCC1)Cc1ccccc1)OCc1cncs1`, the results for the IC50 on CYP3A4 [1] and on CYP3A4 [2] were 0.29 µM and 0.19 µM, respectively. In the case of `CC(C)OC(=O)N[C@@H](CCN1CCOCC1)C(=O)N[C@H](CC[C@H](Cc1ccccc1)NC(=O)OCc1cncs1)Cc1ccccc1`, the IC50 at CYP3A4 [1] came out at 0.4 µM.

Regarding `CC(C)c1nc(CN(C)C(=O)N[C@H](C(=O)N[C@H](CC[C@H](Cc2ccccc2)NC(=O)OCC(C)(C)C)Cc2ccccc2)C(C)C)cs1`, the IC50 came to 2.2 µM at CYP3A4 [1] and 0.87 µM at CYP3A4 [2]. As to `CC(C)c1nc(CN(C)C(=O)N[C@H](C(=O)N[C@H](CC[C@H](Cc2ccccc2)NC(=O)NCC(C)(C)C)Cc2ccccc2)C(C)C)cs1`, the IC50 worked out at 2.1 µM at CYP3A4 [1] and 0.6 µM on CYP3A4 [2].

As to `CC(C)N(C)C(=O)N1C[C@H](O)C[C@H]1C(=O)N[C@@H](CC[C@@H](Cc1ccccc1)NC(=O)OCc1cncs1)Cc1ccccc1`, the results for the IC50 at CYP3A4 [1] and on CYP3A4 [2] were 0.27 µM and 0.13 µM, respectively.

Consider `CC(C)CC(=O)N[C@@H](CCN1CCOCC1)C(=O)N[C@H](CC[C@H](Cc1ccccc1)NC(=O)OCc1cncs1)Cc1ccccc1`, for which the IC50 at CYP3A4 [1] was determined as 0.38 µM. Take `CC(C)c1nc(CN(C)C(=O)N[C@H](C(=O)N[C@H](CC[C@H](Cc2ccccc2)NC(=O)NCc2cccs2)Cc2ccccc2)C(C)C)cs1`: the IC50 at CYP3A4 [1] was determined as 1.5 µM; at CYP3A4 [2], 0.6 µM. Taken in the same sequence, the figures for `O=C(N[C@@H](CC[C@@H](Cc1ccccc1)NC(=O)[C@@H]1C[C@@H](O)CN1C(=O)N1CCCCC1)Cc1ccccc1)OCc1cncs1` were 0.25 µM and below 0.1 µM. `CC(C)c1nc(CN(C)C(=O)N[C@H](C(=O)N[C@H](CC[C@H](Cc2ccccc2)NC(=O)OCc2cncn2C)Cc2ccccc2)C(C)C)cs1`: the IC50 is 0.29 µM at CYP3A4 [1] and below 0.1 µM on CYP3A4 [2].

For the compound `O=C(N[C@H](CC[C@H](Cc1ccccc1)NC(=O)[C@H](CO)NC(=O)N1CCCCC1)Cc1ccccc1)OCc1cncs1`, the figures for the IC50 at CYP3A4 [1] and on CYP3A4 [2] were 0.31 µM and below 0.1 µM, respectively. As to `O=C(N[C@H](CC[C@H](Cc1ccccc1)NC(=O)[C@@H]1C[C@H](N2CCOCC2)CN1C(=O)N1CCCCC1)Cc1ccccc1)OCc1cncs1`, the IC50 at CYP3A4 [1] is 0.47 µM; on CYP3A4 [2], 0.12 µM. For the compound `O=C(N[C@H](CC[C@H](Cc1ccccc1)NC(=O)[C@H](CCN1CCOCC1)NC(=O)OCc1ccccc1)Cc1ccccc1)OCc1cncs1`, the IC50 was 0.4 µM at CYP3A4 [1] and below 0.1 µM at CYP3A4 [2].

As for `O=C(N[C@H](CC[C@H](Cc1ccccc1)NC(=O)[C@H](CCN1CCOCC1)NS(=O)(=O)Cc1ccccc1)Cc1ccccc1)OCc1cncs1`, the IC50 on CYP3A4 [1] is 0.47 µM; on CYP3A4 [2], below 0.1 µM. As for `CC(C)c1nc(CN(C)C(=O)N[C@H](C(=O)N[C@H](CC[C@H](Cc2ccccc2)NC(=O)OCC2CCNC2)Cc2ccccc2)C(C)C)cs1` (some centres unmarked), the IC50 at CYP3A4 [1] is 1 µM; on CYP3A4 [2] it was 0.35 µM.

Regarding `CC(C)c1nc(CN(C)C(=O)N[C@H](C(=O)N[C@H](CC[C@H](Cc2ccccc2)NC(=O)OCc2cccs2)Cc2ccccc2)C(C)C)cs1`, the results for the IC50 at CYP3A4 [1] and at CYP3A4 [2] were 2 µM and 1.1 µM, respectively. For the compound `CC(C)OC(=O)N[C@H](CC[C@H](Cc1ccccc1)NC(=O)[C@@H](NC(=O)N(C)Cc1csc(C(C)C)n1)C(C)C)Cc1ccccc1`, the IC50 amounted to 1.6 µM on CYP3A4 [1] and 0.5 µM at CYP3A4 [2]. Taken in the same sequence, the figures for `CC(C)c1nc(CN(C)C(=O)N[C@H](C(=O)N[C@H](CC[C@H](Cc2ccccc2)NC(=O)OCc2ccccn2)Cc2ccccc2)C(C)C)cs1` were 1.6 µM and 0.43 µM. Taken in the same sequence, the figures for `CC(C)c1nc(CN(C)C(=O)N[C@H](C(=O)N[C@H](CC[C@H](Cc2ccccc2)NC(=O)OCc2cnco2)Cc2ccccc2)C(C)C)cs1` were 0.52 µM and 0.21 µM.

Consider `CC(C)N(C)C(=O)N1C[C@@H](N2CCOCC2)C[C@H]1C(=O)N[C@H](CC[C@H](Cc1ccccc1)NC(=O)OCc1cncs1)Cc1ccccc1`, for which the figures for the IC50 at CYP3A4 [1] and on CYP3A4 [2] were 0.58 µM and 0.21 µM, respectively. Regarding `O=C(N[C@@H](CC[C@@H](Cc1ccccc1)NC(=O)[C@H](CO)NC(=O)N1CCCCC1)Cc1ccccc1)OCc1cncs1`, the IC50 is 0.2 µM at CYP3A4 [1] and below 0.1 µM on CYP3A4 [2].
